Test results reported in ChEMBL document CHEMBL5725827, “2-pyridyloxy-3-ester-4-nitrile orexin receptor antagonists” (2017).
pKi: −log10 of the molar value.

Sequences of proteins named here, by UniProt entry; tags and fusion partners are left off.
UniProt P56718, whole entry, looked up: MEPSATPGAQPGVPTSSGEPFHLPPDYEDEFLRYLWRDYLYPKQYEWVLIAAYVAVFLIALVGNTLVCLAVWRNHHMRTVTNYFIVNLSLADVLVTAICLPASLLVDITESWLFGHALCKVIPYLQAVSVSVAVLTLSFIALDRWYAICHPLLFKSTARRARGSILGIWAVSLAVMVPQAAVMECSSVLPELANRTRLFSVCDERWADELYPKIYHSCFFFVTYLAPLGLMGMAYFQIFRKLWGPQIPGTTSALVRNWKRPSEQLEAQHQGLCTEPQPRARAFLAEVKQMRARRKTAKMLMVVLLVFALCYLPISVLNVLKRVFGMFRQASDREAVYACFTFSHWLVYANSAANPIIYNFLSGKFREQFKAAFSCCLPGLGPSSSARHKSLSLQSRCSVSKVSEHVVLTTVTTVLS

Molecular target: Orexin/Hypocretin receptor type 1 (Rattus norvegicus, UniProt P56718)
Assay: Radioligand Binding Assay: Described in Bergman et. al. Bioorg. Med. Chem. Lett. 2008, 18, 1425-1430.
Parameters: species or system Homo sapiens

SMILES | pKi
COC(=O)c1c(C#N)ccnc1O[C@@H]1CC[C@@H](C)N(C(=O)c2ccc(F)cc2-c2noc(C)n2)C1 | 6.48
COC(=O)c1c(C#N)ccnc1O[C@@H]1CC[C@@H](C)N(C(=O)c2c(F)cccc2-c2noc(C)n2)C1 | 6.73
COC(=O)c1c(C#N)ccnc1O[C@@H]1CC[C@@H](C)N(C(=O)c2ccc(C)cc2-n2nccn2)C1 | 6.75
COC(=O)c1c(C#N)ccnc1O[C@@H]1CC[C@@H](C)N(C(=O)c2ccc(OC)nc2-n2nccn2)C1 | 5.85
COC(=O)c1c(C#N)ccnc1O[C@@H]1CC[C@@H](C)N(C(=O)c2ccccc2C2CCC2)C1 | 6.62

The next lines start with the values.

pKi | SMILES
7.24 | COC(=O)c1c(C#N)ccnc1O[C@@H]1CC[C@@H](C)N(C(=O)c2cccc(C)c2-n2nccn2)C1
6.77 | COC(=O)c1c(C#N)ccnc1O[C@@H]1CC[C@@H](C)N(C(=O)c2c(F)cccc2-c2nc(C)no2)C1
6.76 | COC(=O)c1c(C#N)ccnc1O[C@@H]1CC[C@@H](C)N(C(=O)c2cccc(F)c2-c2ncccn2)C1
7.32 | COC(=O)c1c(C#N)ccnc1O[C@@H]1CC[C@@H](C)N(C(=O)c2c(F)cccc2-c2ncccn2)C1
